Amino acid sequences for entries named in this document (tags omitted).
UniProt Q9P2K8, whole entry: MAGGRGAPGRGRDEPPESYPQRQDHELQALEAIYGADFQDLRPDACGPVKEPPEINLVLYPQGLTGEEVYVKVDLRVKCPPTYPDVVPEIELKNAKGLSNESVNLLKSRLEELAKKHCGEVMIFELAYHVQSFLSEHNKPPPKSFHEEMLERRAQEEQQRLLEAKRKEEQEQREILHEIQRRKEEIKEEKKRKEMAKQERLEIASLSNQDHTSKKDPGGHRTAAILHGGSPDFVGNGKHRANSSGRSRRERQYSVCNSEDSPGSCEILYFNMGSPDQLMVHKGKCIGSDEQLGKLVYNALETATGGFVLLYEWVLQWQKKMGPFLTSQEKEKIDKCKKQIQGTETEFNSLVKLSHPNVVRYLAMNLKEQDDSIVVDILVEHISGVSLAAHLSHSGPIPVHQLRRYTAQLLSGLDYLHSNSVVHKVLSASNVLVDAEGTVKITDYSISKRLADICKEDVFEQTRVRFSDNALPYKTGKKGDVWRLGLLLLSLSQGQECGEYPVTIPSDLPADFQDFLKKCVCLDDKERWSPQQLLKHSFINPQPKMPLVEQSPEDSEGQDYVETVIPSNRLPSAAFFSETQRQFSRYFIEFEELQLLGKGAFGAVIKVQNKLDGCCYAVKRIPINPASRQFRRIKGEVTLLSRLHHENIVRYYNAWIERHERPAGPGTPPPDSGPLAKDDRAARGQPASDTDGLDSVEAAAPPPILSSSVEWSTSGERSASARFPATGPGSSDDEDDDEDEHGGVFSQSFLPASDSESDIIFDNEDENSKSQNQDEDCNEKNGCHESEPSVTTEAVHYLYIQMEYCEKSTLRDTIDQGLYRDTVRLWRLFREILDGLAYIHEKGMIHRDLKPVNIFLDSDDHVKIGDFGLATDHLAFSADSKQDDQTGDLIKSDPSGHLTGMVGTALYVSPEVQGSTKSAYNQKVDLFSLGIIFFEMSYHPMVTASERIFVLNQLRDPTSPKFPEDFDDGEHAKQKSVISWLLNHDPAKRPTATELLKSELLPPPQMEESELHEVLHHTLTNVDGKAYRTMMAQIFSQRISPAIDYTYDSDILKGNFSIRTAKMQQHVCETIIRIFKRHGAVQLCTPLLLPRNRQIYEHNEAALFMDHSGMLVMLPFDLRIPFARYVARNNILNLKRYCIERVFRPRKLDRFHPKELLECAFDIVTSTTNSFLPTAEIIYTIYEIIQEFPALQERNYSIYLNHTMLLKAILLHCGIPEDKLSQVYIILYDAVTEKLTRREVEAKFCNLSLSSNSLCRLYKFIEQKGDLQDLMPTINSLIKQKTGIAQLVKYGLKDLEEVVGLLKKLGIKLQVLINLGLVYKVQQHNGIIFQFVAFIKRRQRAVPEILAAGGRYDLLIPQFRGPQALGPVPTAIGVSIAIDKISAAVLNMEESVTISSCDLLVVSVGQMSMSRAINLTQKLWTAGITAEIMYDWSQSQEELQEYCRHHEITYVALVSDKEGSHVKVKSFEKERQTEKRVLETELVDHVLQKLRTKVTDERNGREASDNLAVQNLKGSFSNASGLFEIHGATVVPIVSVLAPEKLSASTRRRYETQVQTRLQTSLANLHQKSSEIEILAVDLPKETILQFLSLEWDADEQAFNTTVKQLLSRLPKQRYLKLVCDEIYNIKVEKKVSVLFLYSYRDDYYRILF

According to patent US10988477B2 (Merck Patent GmbH, priority 2018, dated 2021):

Columns and labels:
[1] = target: GCN2 kinase (Homo sapiens, UniProt Q9P2K8); test: GCN2 enzyme inhibition assay (Transcreener ADP2 fluorescence polarization); settings: read-out: GCN2 (Ki); compounds of Formula II; 280 μM ATP, 4 nM GCN2 kinase
Experimental: Compounds were screened for their ability to inhibit GCN2 kinase activity using a Transcreener® ADP^2 fluorescence polarization assay that detects ADP levels (BellBrook Labs, WI). Assays were carried out in a buffer consisting of 25 mM Tris-HCl (pH 7.5), 50 mM NaCl, 10 mM MgCl2 and 1 mM DTT. Final substrate concentrations were 280 μM ATP and 200 μM peptidic substrate (H-[…]OH [(RS)7], Bachem, Switzerland). Assays were carried out at 25° C. in the presence of a (typical) final concentration of 4 nM GCN2 kinase.
An assay buffer containing GCN2 kinase and (RS)7 was prepared. 4.7 μL of this stock solution was placed per well of a black, low volume, 384-well microtitre plate (e.g. catalogue number 3676, Corning Inc., NY). […] The reaction was left to incubate for 1 hour at 25° C., prior to measuring the fluorescence polarisation signal (mP) in each well using a PHERAstar FS reader (BMG Labtech, Germany).
Fluorescence polarization values were normalized to an in plate standard curve consisting of various ratios of ATP to ADP in assay buffer to a final total concentration of 280 μM. […] Percentage inhibition of enzyme activity was then calculated at each compound dose. IC50 and Ki(app) (using known assay and kinetic parameters) values were calculated from percentage inhibition data using a non-linear, tight-binding algorithm. […]

[2] = target: intracellular GCN2 (phosphorylation of the GCN2 substrate eIF2α) (Homo sapiens, UniProt Q9P2K8); test: GCN2 cellular inhibition assay (AlphaScreen SureFire P-eIF2α Ser51, borrelidin-treated U2OS cells); settings: read-out: GCN2 Biomarker (IC50), compounds of Formula II, phosphorylated eIF2α Ser51 in borrelidin-treated U2OS cells
Experimental: Compounds can be screened for their ability to inhibit intracellular GCN2 using an AlphaScreen assay (Perkin Elmer) to detect phosphorylation of the GCN2 substrate eIF2α in borrelidin-treated cells. U2OS cells are plated at 5,000 cells per well in 384-well white polystyrene plates (Corning 3570) in McCoy's 5 A media (GIBCO 26600-023) supplemented with 10% foetal bovine serum (SAFC 12103C), Penicillin/Streptomycin solution diluted 1:100 (Sigma P0781), and 2 mM L-glutamine (Sigma G7513), and allowed to adhere overnight at 37° C. in 5% CO2. Compounds are then added to the cell media from a final concentration of 40 μM in 4-fold serial dilutions. Borrelidin (FluoroChem M01440) is immediately added to the wells to a final concentration of 10 μM and the cells are incubated for 1 h at 37° C. in 5% CO2. After 1 h of treatment with borrelidin, the media is removed, and the cells are lysed with lysis buffer (TGR BioSciences TGRLB) at ambient temperature.
An AlphaScreen SureFire P-eIF2α (Ser51) assay kit (Perkin Elmer TGREIF2S) was used to measure levels of eIF2α phosphorylated on Serine 51. […]
Plates are analyzed on an Alpha Technology-compatible PHERAstar FS plate reader (BMG Labtech Version 1.14) to quantify phosphorylated eIF2α Ser51 levels. The percentage inhibition of phosphorylated eIF2α is calculated by comparison to control wells stimulated with borrelidin alone.

## CS(=O)(=O)NCC1CN(c2cc(-c3cnc4ccc(C(F)F)nn34)cc[n+]2[O-])CCC1(F)F (centres unmarked)
[1]
  Ki: < 0.01 µM
[2]
  IC50: 0.5 to 5 µM
